# Patent US11236047B2 (ASTEX THERAPEUTICS LIMITED, priority 2017, dated 2022)
# Tests used:
# Format in all cases: cell-based
# Molm-13 AML cell line = assay: Combination protocol for proliferation in dose matrix (Alamar blue), Molm-13
# Method: (§1) Combination Protocol for Proliferation in Dose Matrix
# (§2) AML cell lines were seeded onto 96-well tissue culture plates in triplicates at a concentration of 1×10^4 cells/well. Cells were allowed to recover for 16-24 hours prior to adding SGI-110 at a range of concentrations (0.003-3 μM). Following 24 hr incubation with SGI-110, (2S,3S)-3-(4-chlorophenyl)-3-[(1R)-1-(4-chlorophenyl)-7-fluoro-5-[(1S)-1-hydroxy-1-(oxan-4-yl)propyl]-1-methoxy-3-oxo-2,3-dihydro-1H-isoindol-2-yl]-2-methylpropanoic acid was added at a range of concentrations (0.001-10 μM) and incubated for additional 48 hrs. At the end of compound treatment, 20 μl Alamar blue was added. After further 5-6 hr incubation at 37° C. the plates were read on a Spectramax Gemini reader (Molecular Devices; excitation 535 nm, emission 590 nm). Viability was calculated as percentage of DMSO vehicle control and synergy between various dose combinations of SGI-110 and (2S,3S)-3-(4-chlorophenyl)-3-[(1R)-1-(4-chlorophenyl)-7-fluoro-5-[(1S)-1-hydroxy-1-(oxan-4-yl)propyl]-1-methoxy-3-oxo-2,3-dihydro-1H-isoindol-2-yl]-2-methylpropanoic acid was identified based on the HAS Synergy Model.
# MV-4-11 AML cell line = assay: Combination protocol for proliferation in dose matrix (Alamar blue), MV-4-11
# Method: as §1, §2
# ML-2 AML cell line = assay: Combination protocol for proliferation in dose matrix (Alamar blue), ML-2
# Method: as §1, §2
# [1] = SGI-110 0.003 μM + isoindolinone 0 μM
# [2] = SGI-110 0.01 μM + isoindolinone 0 μM
# [3] = SGI-110 0.03 μM + isoindolinone 0 μM
# [4] = SGI-110 0.1 μM + isoindolinone 0 μM
# [5] = SGI-110 0.3 μM + isoindolinone 0 μM
# [6] = SGI-110 1 μM + isoindolinone 0 μM
# [7] = SGI-110 3 μM + isoindolinone 0 μM
structure (smiles),measurement,setting,value
"Nc1ncn([C@H]2C[C@H](OP(=O)(O)OC[C@H]3O[C@@H](n4cnc5c(=O)[nH]c(N)nc54)C[C@@H]3O)[C@@H](CO)O2)c(=O)n1 [SGI-110, 2′-deoxy-5-azacytidylyl-(3′5′)-2′-deoxy-guanosine]",Percentage viability relative to DMSO control,Molm-13 AML cell line; [1],96%
same,Percentage viability relative to DMSO control,Molm-13 AML cell line; [2],84%
same,Percentage viability relative to DMSO control,Molm-13 AML cell line; [3],72%
same,Percentage viability relative to DMSO control,Molm-13 AML cell line; [4],53%
same,Percentage viability relative to DMSO control,Molm-13 AML cell line; [5],39%
same,Percentage viability relative to DMSO control,Molm-13 AML cell line; [6],31%
same,Percentage viability relative to DMSO control,Molm-13 AML cell line; [7],22%
same,Percentage viability relative to DMSO control,MV-4-11 AML cell line; [1],92%
same,Percentage viability relative to DMSO control,MV-4-11 AML cell line; [2],89%
same,Percentage viability relative to DMSO control,MV-4-11 AML cell line; [3],89%
same,Percentage viability relative to DMSO control,MV-4-11 AML cell line; [4],83%
same,Percentage viability relative to DMSO control,MV-4-11 AML cell line; [5],76%
same,Percentage viability relative to DMSO control,MV-4-11 AML cell line; [6],60%
same,Percentage viability relative to DMSO control,MV-4-11 AML cell line; [7],50%
same,Percentage viability relative to DMSO control,ML-2 AML cell line; [1],94%
same,Percentage viability relative to DMSO control,ML-2 AML cell line; [2],92%
same,Percentage viability relative to DMSO control,ML-2 AML cell line; [3],87%
same,Percentage viability relative to DMSO control,ML-2 AML cell line; [4],78%
same,Percentage viability relative to DMSO control,ML-2 AML cell line; [5],74%
same,Percentage viability relative to DMSO control,ML-2 AML cell line; [6],61%
same,Percentage viability relative to DMSO control,ML-2 AML cell line; [7],45%
